# Results reported in patent US20260384450A1, “MACROCYCLIC AMINOPYRIDINE COMPOUNDS AS EGFR INHIBITORS” (published 2026).
# Sequences of proteins named here, by UniProt entry; tags and fusion partners are left off. A change or cut given only in a name is not applied to a line headed by its entry. A line that says so, or that is headed by a name, gives the form on record, which may keep a tag or linker. Residues count along the entry.
# UniProt P00533, 25-1210 limits assumed: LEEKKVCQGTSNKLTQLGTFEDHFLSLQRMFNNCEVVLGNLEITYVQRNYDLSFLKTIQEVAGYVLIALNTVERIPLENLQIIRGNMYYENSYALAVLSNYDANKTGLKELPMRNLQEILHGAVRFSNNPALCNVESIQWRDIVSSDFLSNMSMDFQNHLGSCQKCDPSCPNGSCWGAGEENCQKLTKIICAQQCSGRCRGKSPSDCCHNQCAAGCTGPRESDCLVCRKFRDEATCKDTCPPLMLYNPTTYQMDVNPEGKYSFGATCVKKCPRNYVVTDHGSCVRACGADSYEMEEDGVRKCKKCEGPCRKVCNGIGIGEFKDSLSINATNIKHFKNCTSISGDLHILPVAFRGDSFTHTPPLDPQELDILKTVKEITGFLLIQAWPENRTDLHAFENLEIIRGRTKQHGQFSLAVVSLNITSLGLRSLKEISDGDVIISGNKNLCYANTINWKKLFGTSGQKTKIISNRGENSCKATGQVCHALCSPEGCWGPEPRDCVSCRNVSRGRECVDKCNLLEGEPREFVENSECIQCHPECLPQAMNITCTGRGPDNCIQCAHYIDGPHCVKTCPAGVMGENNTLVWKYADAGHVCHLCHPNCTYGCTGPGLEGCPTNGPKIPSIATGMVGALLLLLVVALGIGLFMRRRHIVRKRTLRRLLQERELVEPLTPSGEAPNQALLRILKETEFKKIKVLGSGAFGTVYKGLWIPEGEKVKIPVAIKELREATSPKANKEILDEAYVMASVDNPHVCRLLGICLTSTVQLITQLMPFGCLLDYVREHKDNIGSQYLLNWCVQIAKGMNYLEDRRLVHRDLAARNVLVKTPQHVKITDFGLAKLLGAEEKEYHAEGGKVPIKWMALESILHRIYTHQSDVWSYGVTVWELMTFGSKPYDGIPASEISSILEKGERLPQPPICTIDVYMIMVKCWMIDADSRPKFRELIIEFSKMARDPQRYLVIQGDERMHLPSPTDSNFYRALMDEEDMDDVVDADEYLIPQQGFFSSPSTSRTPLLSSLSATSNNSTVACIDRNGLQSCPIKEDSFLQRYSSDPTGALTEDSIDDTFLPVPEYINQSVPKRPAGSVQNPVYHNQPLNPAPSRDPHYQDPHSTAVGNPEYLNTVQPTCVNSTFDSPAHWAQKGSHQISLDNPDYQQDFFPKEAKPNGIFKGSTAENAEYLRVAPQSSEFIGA
# UniProt P00533, 25-1210 C797S/L858R limits assumed: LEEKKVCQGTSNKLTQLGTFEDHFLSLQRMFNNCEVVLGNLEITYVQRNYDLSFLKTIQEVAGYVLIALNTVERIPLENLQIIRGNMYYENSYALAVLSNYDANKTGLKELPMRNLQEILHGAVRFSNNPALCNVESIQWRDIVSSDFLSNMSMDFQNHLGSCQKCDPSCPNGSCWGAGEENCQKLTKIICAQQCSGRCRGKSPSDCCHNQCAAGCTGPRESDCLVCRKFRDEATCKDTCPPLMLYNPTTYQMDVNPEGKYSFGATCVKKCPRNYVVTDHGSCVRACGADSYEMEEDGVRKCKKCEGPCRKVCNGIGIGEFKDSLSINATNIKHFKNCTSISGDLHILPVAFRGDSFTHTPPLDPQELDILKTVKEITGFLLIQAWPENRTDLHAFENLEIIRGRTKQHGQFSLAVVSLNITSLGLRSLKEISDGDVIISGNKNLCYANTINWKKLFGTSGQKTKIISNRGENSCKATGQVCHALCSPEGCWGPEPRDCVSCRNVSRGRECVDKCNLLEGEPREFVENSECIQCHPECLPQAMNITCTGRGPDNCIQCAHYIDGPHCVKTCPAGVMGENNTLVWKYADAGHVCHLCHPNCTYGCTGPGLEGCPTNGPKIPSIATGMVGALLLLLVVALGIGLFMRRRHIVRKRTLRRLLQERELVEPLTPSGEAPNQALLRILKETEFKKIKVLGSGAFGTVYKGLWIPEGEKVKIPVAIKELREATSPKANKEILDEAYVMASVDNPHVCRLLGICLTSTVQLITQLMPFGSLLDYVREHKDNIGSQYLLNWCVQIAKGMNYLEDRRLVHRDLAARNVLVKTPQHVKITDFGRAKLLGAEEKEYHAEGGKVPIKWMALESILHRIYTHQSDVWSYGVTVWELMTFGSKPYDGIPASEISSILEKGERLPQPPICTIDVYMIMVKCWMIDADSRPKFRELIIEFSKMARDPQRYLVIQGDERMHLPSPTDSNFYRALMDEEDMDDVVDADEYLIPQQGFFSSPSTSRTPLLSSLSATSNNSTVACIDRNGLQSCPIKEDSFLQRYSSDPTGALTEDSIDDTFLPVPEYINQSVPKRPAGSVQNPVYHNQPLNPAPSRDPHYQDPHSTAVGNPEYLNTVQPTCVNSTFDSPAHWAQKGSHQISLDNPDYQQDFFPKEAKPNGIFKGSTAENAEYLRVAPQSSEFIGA
# UniProt P00533, 25-1210 T790M/C797S/L858R limits assumed: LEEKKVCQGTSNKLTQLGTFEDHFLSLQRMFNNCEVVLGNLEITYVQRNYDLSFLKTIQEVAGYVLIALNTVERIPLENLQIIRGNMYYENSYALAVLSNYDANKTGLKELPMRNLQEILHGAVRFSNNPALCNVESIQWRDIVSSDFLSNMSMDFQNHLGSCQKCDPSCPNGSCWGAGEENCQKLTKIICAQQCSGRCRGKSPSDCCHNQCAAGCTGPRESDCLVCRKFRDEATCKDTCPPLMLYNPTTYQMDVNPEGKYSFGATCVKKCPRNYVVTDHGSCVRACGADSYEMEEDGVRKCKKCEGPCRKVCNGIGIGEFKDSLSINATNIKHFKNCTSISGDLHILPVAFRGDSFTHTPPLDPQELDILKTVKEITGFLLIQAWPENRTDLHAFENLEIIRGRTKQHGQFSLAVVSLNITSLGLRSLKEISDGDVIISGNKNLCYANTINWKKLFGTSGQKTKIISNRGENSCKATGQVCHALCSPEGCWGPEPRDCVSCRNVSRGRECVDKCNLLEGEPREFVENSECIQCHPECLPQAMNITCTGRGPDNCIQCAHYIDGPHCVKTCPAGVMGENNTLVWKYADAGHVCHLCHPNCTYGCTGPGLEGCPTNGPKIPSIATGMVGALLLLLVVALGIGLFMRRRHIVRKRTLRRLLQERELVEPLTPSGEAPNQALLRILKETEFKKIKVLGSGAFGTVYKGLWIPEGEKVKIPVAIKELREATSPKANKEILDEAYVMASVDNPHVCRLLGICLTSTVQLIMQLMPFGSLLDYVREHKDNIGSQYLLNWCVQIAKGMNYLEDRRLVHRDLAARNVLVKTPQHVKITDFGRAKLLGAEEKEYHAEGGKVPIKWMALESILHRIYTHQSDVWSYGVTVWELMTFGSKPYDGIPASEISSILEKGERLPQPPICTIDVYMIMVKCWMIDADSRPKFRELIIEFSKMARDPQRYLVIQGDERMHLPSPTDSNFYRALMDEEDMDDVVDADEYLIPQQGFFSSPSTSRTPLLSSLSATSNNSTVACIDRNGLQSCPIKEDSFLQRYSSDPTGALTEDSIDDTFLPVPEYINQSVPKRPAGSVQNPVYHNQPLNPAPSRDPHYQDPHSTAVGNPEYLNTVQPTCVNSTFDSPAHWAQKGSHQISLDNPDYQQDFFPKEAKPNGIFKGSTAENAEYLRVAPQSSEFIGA
# UniProt P00533, with tags, fused parts or gaps DEL746-750/C797S limits assumed: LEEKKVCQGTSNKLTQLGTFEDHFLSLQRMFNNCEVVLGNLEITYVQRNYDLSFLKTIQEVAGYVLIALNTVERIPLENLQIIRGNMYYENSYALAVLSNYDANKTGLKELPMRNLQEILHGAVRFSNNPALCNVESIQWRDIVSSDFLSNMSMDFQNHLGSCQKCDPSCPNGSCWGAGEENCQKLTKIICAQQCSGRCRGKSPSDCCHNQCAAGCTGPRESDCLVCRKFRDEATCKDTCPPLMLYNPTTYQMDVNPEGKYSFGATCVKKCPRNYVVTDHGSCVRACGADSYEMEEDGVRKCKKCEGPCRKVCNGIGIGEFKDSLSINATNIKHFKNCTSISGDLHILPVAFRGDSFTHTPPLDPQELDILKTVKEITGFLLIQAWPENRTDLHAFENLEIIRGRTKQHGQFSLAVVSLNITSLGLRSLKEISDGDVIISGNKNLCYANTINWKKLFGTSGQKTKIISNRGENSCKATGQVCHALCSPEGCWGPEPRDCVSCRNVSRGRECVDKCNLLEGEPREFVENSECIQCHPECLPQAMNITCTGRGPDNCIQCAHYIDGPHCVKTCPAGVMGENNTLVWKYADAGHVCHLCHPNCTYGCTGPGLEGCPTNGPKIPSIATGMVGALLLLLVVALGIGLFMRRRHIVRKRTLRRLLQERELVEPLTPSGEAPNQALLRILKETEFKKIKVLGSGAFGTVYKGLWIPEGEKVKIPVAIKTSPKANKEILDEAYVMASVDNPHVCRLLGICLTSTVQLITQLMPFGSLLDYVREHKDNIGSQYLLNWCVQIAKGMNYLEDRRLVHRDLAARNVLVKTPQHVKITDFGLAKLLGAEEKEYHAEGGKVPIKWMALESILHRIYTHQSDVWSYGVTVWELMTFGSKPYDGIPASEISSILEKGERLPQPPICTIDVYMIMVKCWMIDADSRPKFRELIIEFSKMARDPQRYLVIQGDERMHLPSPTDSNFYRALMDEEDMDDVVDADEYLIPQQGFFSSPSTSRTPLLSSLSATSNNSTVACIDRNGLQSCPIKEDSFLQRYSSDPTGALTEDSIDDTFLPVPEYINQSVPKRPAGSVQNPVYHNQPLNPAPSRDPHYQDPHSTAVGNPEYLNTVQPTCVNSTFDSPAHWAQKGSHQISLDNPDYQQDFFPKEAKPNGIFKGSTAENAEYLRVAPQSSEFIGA
# UniProt P00533, with tags, fused parts or gaps DEL746-750/T790M/C797S limits assumed: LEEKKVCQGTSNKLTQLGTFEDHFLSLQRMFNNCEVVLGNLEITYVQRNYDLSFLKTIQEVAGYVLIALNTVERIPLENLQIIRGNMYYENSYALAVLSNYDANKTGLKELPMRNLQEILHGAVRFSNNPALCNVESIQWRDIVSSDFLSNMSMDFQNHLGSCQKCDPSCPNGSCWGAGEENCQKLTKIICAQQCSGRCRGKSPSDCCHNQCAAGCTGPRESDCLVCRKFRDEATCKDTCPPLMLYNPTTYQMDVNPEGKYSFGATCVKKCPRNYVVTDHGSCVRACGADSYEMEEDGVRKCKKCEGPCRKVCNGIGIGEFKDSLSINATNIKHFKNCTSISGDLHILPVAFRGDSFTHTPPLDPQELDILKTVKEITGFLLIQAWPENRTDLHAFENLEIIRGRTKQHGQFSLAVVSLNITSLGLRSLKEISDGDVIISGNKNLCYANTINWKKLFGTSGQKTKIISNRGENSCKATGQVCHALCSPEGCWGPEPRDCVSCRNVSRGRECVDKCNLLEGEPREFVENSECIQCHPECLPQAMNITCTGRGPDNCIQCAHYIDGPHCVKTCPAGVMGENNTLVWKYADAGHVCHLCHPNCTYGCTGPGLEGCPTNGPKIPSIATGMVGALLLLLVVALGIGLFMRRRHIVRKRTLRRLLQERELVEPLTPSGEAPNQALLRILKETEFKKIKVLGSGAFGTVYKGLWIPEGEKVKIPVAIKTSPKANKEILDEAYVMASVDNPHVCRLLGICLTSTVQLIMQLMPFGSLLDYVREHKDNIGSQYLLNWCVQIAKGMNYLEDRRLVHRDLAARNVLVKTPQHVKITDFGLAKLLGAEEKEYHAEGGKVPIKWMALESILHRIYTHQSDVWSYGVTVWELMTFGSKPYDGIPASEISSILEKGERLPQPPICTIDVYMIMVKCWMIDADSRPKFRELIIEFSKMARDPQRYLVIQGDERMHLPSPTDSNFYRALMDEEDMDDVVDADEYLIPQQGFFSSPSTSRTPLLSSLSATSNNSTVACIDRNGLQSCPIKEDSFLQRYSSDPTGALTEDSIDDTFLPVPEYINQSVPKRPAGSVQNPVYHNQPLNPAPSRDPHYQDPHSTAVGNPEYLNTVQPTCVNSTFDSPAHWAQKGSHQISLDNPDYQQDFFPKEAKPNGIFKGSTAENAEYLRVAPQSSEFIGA
# Read-outs that look alike come from different tables or passages of the source.
# Experiments:
# [1] = target: EGFR D19TMCS (del19/T790M/C797S) (Homo sapiens, UniProt P00533, C797S/DEL746-750/T790M); experiment: Biochemical EGFR kinase assay (Lance Ultra TR-FRET), triple mutant del19/T790M/C797S
# [2] = target: EGFR LRTMCS (L858R/T790M/C797S) (Homo sapiens, UniProt P00533, C797S/L858R/T790M); experiment: Biochemical EGFR kinase assay (Lance Ultra TR-FRET), triple mutant L858R/T790M/C797S
# EGFR D19CS (del19/C797S) = EGFR D19CS (del19/C797S) (Homo sapiens, UniProt P00533, C797S/DEL746-750); experiment: Biochemical EGFR kinase assay (Lance Ultra TR-FRET), double mutant del19/C797S
# EGFR LRCS (L858R/C797S) = EGFR LRCS (L858R/C797S) (Homo sapiens, UniProt P00533, C797S/L858R); experiment: Biochemical EGFR kinase assay (Lance Ultra TR-FRET), double mutant L858R/C797S
# EGFR WT = EGFR WT (Homo sapiens, UniProt P00533); experiment: Biochemical EGFR kinase assay (Lance Ultra TR-FRET), wildtype
# [3] = read-out: EGFR D19TMCS IC50, ATP 1 mM
# [4] = read-out: EGFR D19TMCS IC50, ATP Km
# [5] = read-out: EGFR LRTMCS IC50, ATP 1 mM
# [6] = read-out: EGFR LRTMCS IC50, ATP Km
# [7] = read-out: EGFR D19CS IC50, ATP 1 mM
# [8] = read-out: EGFR D19CS IC50, ATP Km
# [9] = read-out: EGFR LRCS IC50, ATP 1 mM
# [10] = read-out: EGFR LRCS IC50, ATP Km
# [11] = read-out: EGFR WT IC50, ATP 1 mM
# [12] = read-out: IC50, EGFR D19TMCS, Km, ATP at Km, EGFR del19/T790M/C797S
# [13] = read-out: IC50, EGFR LRTMCS, 1 mM, ATP 1 mM, EGFR L858R/T790M/C797S
# [14] = read-out: IC50, EGFR LRTMCS, Km, ATP at Km, EGFR L858R/T790M/C797S
# [15] = read-out: IC50, EGFR-D19CS, 1 mM, ATP 1 mM, EGFR del19/C797S
# [16] = read-out: IC50, EGFR-D19CS, Km, ATP at Km, EGFR del19/C797S
# [17] = read-out: IC50, EGFR-LRCS, 1 mM, ATP 1 mM, EGFR L858R/C797S
# [18] = read-out: IC50, EGFR-LRCS, Km, ATP at Km, EGFR L858R/C797S
# [19] = read-out: IC50, EGFR WT, 1 mM, ATP 1 mM, EGFR wildtype
# [20] = read-out: IC50, EGFR WT, Km, ATP at Km, EGFR wildtype
"IC50 [1, 3]","IC50 [1, 4]","IC50 [2, 5]","IC50 [2, 6]",IC50 (EGFR D19CS (del19/C797S); [7]),IC50 (EGFR D19CS (del19/C797S); [8]),IC50 (EGFR LRCS (L858R/C797S); [9]),IC50 (EGFR LRCS (L858R/C797S); [10]),IC50 (EGFR WT; [11]),"IC50 (EGFR WT; read-out: EGFR WT IC50, ATP Km)","IC50 [1, 12]","IC50 [2, 13]","IC50 [2, 14]",IC50 (EGFR D19CS (del19/C797S); [15]),IC50 (EGFR D19CS (del19/C797S); [16]),IC50 (EGFR LRCS (L858R/C797S); [17]),IC50 (EGFR LRCS (L858R/C797S); [18]),IC50 (EGFR WT; [19]),IC50 (EGFR WT; [20]),SMILES
10 to 100 nM,< 10 nM,100 to 1000 nM,< 10 nM,> 1000 nM,> 1000 nM,> 1000 nM,> 1000 nM,> 1000 nM,> 1000 nM,,,,,,,,,,Cn1ncc2c1OC[C@H](F)CNc1cc(ncc1-c1ccn(C(F)F)n1)Nc1ccnc-2n1
100 to 1000 nM,< 10 nM,100 to 1000 nM,< 10 nM,> 1000 nM,> 1000 nM,> 1000 nM,> 1000 nM,> 1000 nM,> 1000 nM,,,,,,,,,,CN1CCCOc2c(cnn2C)-c2nccc(n2)Nc2cc1c(-c1ccn(C(F)F)n1)cn2
< 10 nM,< 10 nM,< 10 nM,< 10 nM,100 to 1000 nM,10 to 100 nM,100 to 1000 nM,10 to 100 nM,> 1000 nM,10 to 100 nM,,,,,,,,,,Cn1ncc2c1OCC1(CC1)CNc1cc(ncc1-c1ccn(C(F)F)n1)Nc1ccnc-2n1
,,,,,,,,,,< 10 nM,< 10 nM,< 10 nM,10 to 100 nM,< 10 nM,10 to 100 nM,< 10 nM,> 1000 nM,10 to 100 nM,Cc1nn(C)c2c1-c1nccc(n1)Nc1cc(c(-c3ncc(CN4CC5(COC5)C4)cc3F)cn1)NCC[C@H](C)O2
10 to 100 nM,< 10 nM,100 to 1000 nM,< 10 nM,> 1000 nM,10 to 100 nM,> 1000 nM,10 to 100 nM,> 1000 nM,> 1000 nM,,,,,,,,,,Cc1nn(C)c2c1-c1nccc(n1)Nc1cc(c(-c3ccn(C(F)F)n3)cn1)N[C@@H](C)CCO2
10 to 100 nM,< 10 nM,10 to 100 nM,< 10 nM,> 1000 nM,100 to 1000 nM,> 1000 nM,100 to 1000 nM,> 1000 nM,100 to 1000 nM,,,,,,,,,,Cn1ncc2c1OCCC(C)(C)Nc1cc(ncc1-c1ccn(C(F)F)n1)Nc1ccnc-2n1
< 10 nM,< 10 nM,< 10 nM,< 10 nM,10 to 100 nM,< 10 nM,100 to 1000 nM,< 10 nM,> 1000 nM,10 to 100 nM,,,,,,,,,,C[C@H]1CCOc2c(cnn2C)-c2nccc(n2)Nc2cc(c(-c3ncc(C(C)(C)O)cc3F)cn2)N1
,,,,,,,,,,< 10 nM,< 10 nM,< 10 nM,< 10 nM,< 10 nM,10 to 100 nM,< 10 nM,> 1000 nM,10 to 100 nM,Cc1nn(C)c2c1-c1nccc(n1)Nc1cc(c(-c3ncc(CN4CC(C(C)(C)O)C4)cc3F)cn1)NCC[C@H](C)O2
10 to 100 nM,10 to 100 nM,10 to 100 nM,< 10 nM,100 to 1000 nM,10 to 100 nM,> 1000 nM,100 to 1000 nM,> 1000 nM,100 to 1000 nM,,,,,,,,,,C[C@H]1CCNc2cc(ncc2-c2ccc(OC(F)F)cn2)Nc2ccnc(n2)-c2cnn(C)c2O1
10 to 100 nM,< 10 nM,< 10 nM,< 10 nM,10 to 100 nM,< 10 nM,100 to 1000 nM,10 to 100 nM,> 1000 nM,10 to 100 nM,,,,,,,,,,Cn1ncc2c1OCC(C)(C)CNc1cc(ncc1-c1ccc(C(C)(O)C(F)(F)F)cn1)Nc1ccnc-2n1 (centres unmarked)
> 1000 nM,100 to 1000 nM,100 to 1000 nM,10 to 100 nM,> 1000 nM,> 1000 nM,> 1000 nM,100 to 1000 nM,> 1000 nM,> 1000 nM,,,,,,,,,,Cc1nn(C)c2c1-c1nccc(n1)Nc1cc(c(-c3ncc(S(C)(=O)=O)cc3F)cn1)NCC[C@H](C)O2
,,,,,,,,,,< 10 nM,< 10 nM,< 10 nM,10 to 100 nM,10 to 100 nM,100 to 1000 nM,10 to 100 nM,> 1000 nM,10 to 100 nM,Cc1nn(C)c2c1-c1nccc(n1)Nc1cc(c(-c3ncc(CN4CCOCC4)cc3F)cn1)NCC[C@H](C)O2
,,,,,,,,,,< 10 nM,< 10 nM,< 10 nM,< 10 nM,< 10 nM,10 to 100 nM,< 10 nM,> 1000 nM,< 10 nM,Cc1nn(C)c2c1-c1nccc(n1)Nc1cc(c(-c3ccc(S(C)(=O)=O)cn3)cn1)N[C@@H](C)CCO2
,,,,,,,,,,< 10 nM,< 10 nM,< 10 nM,< 10 nM,< 10 nM,10 to 100 nM,< 10 nM,> 1000 nM,10 to 100 nM,Cc1nn(C)c2c1-c1nccc(n1)Nc1cc(c(-c3ncc(C(C)(C)O)cn3)cn1)N[C@@H](C)CCO2
,,,,,,,,,,< 10 nM,10 to 100 nM,< 10 nM,100 to 1000 nM,< 10 nM,> 1000 nM,< 10 nM,> 1000 nM,10 to 100 nM,Cc1nn(C)c2c1-c1nccc(n1)Nc1cc(c(-c3ncc(S(C)(=O)=O)cn3)cn1)N[C@@H](C)CCO2
< 10 nM,< 10 nM,< 10 nM,< 10 nM,< 10 nM,< 10 nM,< 10 nM,< 10 nM,100 to 1000 nM,< 10 nM,,,,,,,,,,Cc1nn(C)c2c1-c1nccc(n1)Nc1cc(c(-c3ccc(OC4CCN(C)CC4)cn3)cn1)NCC(C)(C)CO2
< 10 nM,< 10 nM,< 10 nM,< 10 nM,10 to 100 nM,< 10 nM,10 to 100 nM,< 10 nM,> 1000 nM,10 to 100 nM,,,,,,,,,,Cc1nn(C)c2c1-c1nccc(n1)Nc1cc(c(-c3ncc(CN4CC(O)C(C)(C)C4)cc3F)cn1)NCC[C@H](C)O2 (some centres unmarked)
,,,,,,,,,,< 10 nM,10 to 100 nM,< 10 nM,10 to 100 nM,10 to 100 nM,100 to 1000 nM,< 10 nM,> 1000 nM,10 to 100 nM,Cc1nn(C)c2c1-c1nccc(n1)Nc1cc(c(-c3ncc(CN4CCC(F)(F)CC4)cc3F)cn1)NCC[C@H](C)O2
,,,,,,,,,,< 10 nM,< 10 nM,< 10 nM,10 to 100 nM,< 10 nM,10 to 100 nM,< 10 nM,> 1000 nM,< 10 nM,Cc1nn(C)c2c1-c1nccc(n1)Nc1cc(c(-c3ncc(CN4CCC(C5(O)CC5)CC4)cc3F)cn1)NCC[C@H](C)O2
< 10 nM,< 10 nM,< 10 nM,< 10 nM,10 to 100 nM,10 to 100 nM,100 to 1000 nM,10 to 100 nM,> 1000 nM,10 to 100 nM,,,,,,,,,,Cc1nn(C)c2c1-c1nccc(n1)Nc1cc(c(-c3ncc(CN4CC(F)(F)C4)cc3F)cn1)N[C@@H](C)CCO2
< 10 nM,< 10 nM,< 10 nM,< 10 nM,10 to 100 nM,< 10 nM,100 to 1000 nM,< 10 nM,> 1000 nM,10 to 100 nM,,,,,,,,,,C[C@H]1CCOc2c(cnn2C)-c2nccc(n2)Nc2cc(c(-c3cc(OC(F)F)ccn3)cn2)N1
< 10 nM,< 10 nM,10 to 100 nM,< 10 nM,100 to 1000 nM,10 to 100 nM,100 to 1000 nM,10 to 100 nM,> 1000 nM,10 to 100 nM,,,,,,,,,,Cn1ncc2c1OCC1(CCC1)CNc1cc(ncc1-c1ccn(C(F)F)n1)Nc1ccnc-2n1
100 to 1000 nM,10 to 100 nM,100 to 1000 nM,< 10 nM,> 1000 nM,> 1000 nM,> 1000 nM,> 1000 nM,> 1000 nM,> 1000 nM,,,,,,,,,,COc1cccnc1-c1cnc2cc1NC(C)CCCOc1c(cnn1C)-c1nccc(n1)N2 (centres unmarked)
< 10 nM,< 10 nM,< 10 nM,< 10 nM,< 10 nM,< 10 nM,< 10 nM,< 10 nM,> 1000 nM,10 to 100 nM,,,,,,,,,,Cc1nn(C)c2c1-c1nccc(n1)Nc1cc(c(-c3ccc(N4CCC(N(C)C)CC4)cn3)cn1)N[C@@H](C)CCO2
< 10 nM,< 10 nM,< 10 nM,< 10 nM,< 10 nM,< 10 nM,< 10 nM,< 10 nM,100 to 1000 nM,< 10 nM,,,,,,,,,,Cc1nn(C)c2c1-c1nccc(n1)Nc1cc(c(-c3ccc(OC4CCN(C)CC4)cn3)cn1)N[C@@H](C)CCO2
